The conditions of series [1]: standard substances of liposolubility; values reported in the literature; cited from earlier work.
In series [2] the target is synthetic amyloid β (1-40) aggregates (Homo sapiens, UniProt P05067). The experiment in a line: Inhibition of binding of compound 23 to amyloid β protein aggregates. Also noted: amyloid β (1-40) peptide hydrochloric acid salt; host or cells: chemically synthesised peptide. The settings on record: read-out: Inhibitory activity (n = 3) IC50 Mean ± S.D.; binding of 125I-labeled compound 23 to A β 1-40 aggregates; room temperature, three hours.

Protein sequences, listed by entry. Tags and fused reporters are not part of them. Residues count along the entry.
UniProt P05067, 672-711 limits assumed: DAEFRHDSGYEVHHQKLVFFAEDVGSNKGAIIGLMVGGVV

Consider `Cc1nc2n(c(=O)c1CCN1CCC(c3noc4cc(F)ccc34)CC1)CCCC2` [Risperidon], for which the LogD7.4 in series [1] is given as 2.04.

In general, IC50 refers to the midpoint of a concentration-inhibition curve. Take `Cc1ccc2c(c1)sc(-c1ccc(N(C)C)cc1)[n+]2C` [Thioflavin T]: the 50% inhibitory concentration (IC50) in series [2] turned out to be 895 ± 121 nM.

The values above are taken from patent US8022075B2, “Diagnostic and remedy for disease caused by amyloid aggregation and/or deposition” (Fujifilm Ri Pharma Co., Ltd., priority 2005, dated 2011).
